This test concerns the target hPPARβ (Homo sapiens, UniProt Q03181). As to the kind of experiment: Transient transfection assay in HepG2 cells, Gal4-hPPARβ chimeric receptor, luciferase reporter. The note with it: read-out: EC50β nM (Group); Hep G2-hBeta EC50, 24 hours incubation. The test is classed as cell-based.

Amino acid sequences for entries named in this document (tags omitted). Residues count along the entry.
UniProt Q03181, 171-441 limits assumed: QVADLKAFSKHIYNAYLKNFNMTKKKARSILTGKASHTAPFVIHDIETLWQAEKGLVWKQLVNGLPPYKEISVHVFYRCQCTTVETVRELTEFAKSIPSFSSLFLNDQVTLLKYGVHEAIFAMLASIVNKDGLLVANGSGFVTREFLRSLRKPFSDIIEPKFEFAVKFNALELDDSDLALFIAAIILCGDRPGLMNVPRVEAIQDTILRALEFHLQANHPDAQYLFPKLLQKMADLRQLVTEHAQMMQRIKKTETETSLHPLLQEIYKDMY

Each structure is given as a SMILES string. A value given as a limit tells only on which side of the number the result lay.

In the case of `Cc1cc(SCc2ccc(-c3ccc(C(F)(F)F)cc3)cc2)c(O)cc1OCC(=O)O`, the EC50 was < 300 nM.
